# Measured melting point values of organic chemicals

Values as listed in the OPERA 2.9 repository of K. Mansouri.

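These are experimental values that the OPERA curators gathered from public databases to train and test their QSAR models. The files give a single number for a compound and property, which may rest on several reports. Method, purity and exact conditions of the single measurements are not given. Where a salt, mixture or single isomer is drawn, the source does not say that exactly this form was tested. Unmarked limits or estimates from the upstream databases cannot be ruled out.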

Melting points are in °C. Cells with "n/a" have no entry in this list. The databases behind each value are named after "via".

SMILES	name	melting point (°C)	via
Cc1cc(C=O)c(C)n1Cc1ccco1	n/a	88	OCHEM
CCC(C)OC(N)=O (configuration not stated)	Carbamic acid, 1-methylpropyl ester	63	QSARDB
COc1ccccc1NC1=NCCCS1	N-(2-Methoxyphenyl)-5,6-dihydro-4H-1,3-thiazin-2-amine	84	OCHEM
COc1ccc2c3c1OC1C(O)C=CC4C(C2)[N+](C)(C)CCC341.[Br-] (configuration not stated)	Codeine methylbromide	260	OCHEM
Nc1nnns1	1,2,3,4-thiatriazol-5-amine	121	OCHEM
Clc1cc(Cl)c(-c2ccc(Cl)c(Cl)c2Cl)cc1Cl	2,2',3,4,4',5'-Hexachlorobiphenyl	80	QSARDB
CCc1nnc(NC(=O)CCl)s1	2-Chloro-N-(5-ethyl-1,3,4-thiadiazol-2-yl)acetamide	102	OCHEM
CC(C)C(Nc1ccc(C(F)(F)F)cc1Cl)C(=O)OC(C#N)c1cccc(Oc2ccccc2)c1 (configuration not stated)	Fluvalinate	5.45	OCHEM, PubChem
O=C(CCl)N1CCCC1=O	1-(2-Chloro-acetyl)-pyrrolidin-2-one	34	OCHEM
COc1ccc(OC)c(C(O)C(C)N)c1.Cl (configuration not stated)	Methoxamine hydrochloride	214	OCHEM, PubChem
CC(=O)OC(Cl)CCl (configuration not stated)	1,2-Dichloroethyl acetate	-32	PubChem
[C-]#[O+].[C-]#[O+].[C-]#[O+].[C-]#[O+].[Co+].[H-]	Cobalt hydrocarbonyl [CoH(CO)4]	-26.11	PubChem
CC(C)(N)Cc1ccc(Cl)cc1.Cl	Chlorphentermine hydrochloride	52.5	OCHEM
CCCCCCCCCCCCCCOC(=O)OOC(=O)OCCCCCCCCCCCCCC	Peroxydicarbonic acid, C,C'-ditetradecyl ester	46	eChemPortal
CC(C)CCCCCCCOP(=S)([S-])OCCCCCCCC(C)C.CC(C)CCCCCCCOP(=S)([S-])OCCCCCCCC(C)C.[Zn+2]	n/a	-75.5	eChemPortal
Clc1ccc2c(c1)Oc1ccc(Cl)cc1O2	2,7-Dichlorodibenzo-p-dioxin	209	OCHEM, PubChem, QSARDB
COc1ccc(O)c(C(C)(C)C)c1	2-tert-Butyl-4-methoxyphenol	58	eChemPortal
C[C@]12CC[C@H]3[C@@H](CCC4=CC(=O)CC[C@@H]43)[C@@H]1CCC2=O	19-Norandrostenedione	169	eChemPortal
O=Cc1cc(CCl)ccc1O	5-(Chloromethyl)-2-hydroxybenzaldehyde	88	OCHEM
O=C(c1cc(Cl)c(Cl)[nH]1)C(Cl)(Cl)Cl	2,2,2-Trichloro-1-(4,5-dichloro-1H-pyrrol-2-yl)ethan-1-one	130	OCHEM
CCP(=O)([O-])CC.[Na+]	Sodium diethylphosphinate	310	eChemPortal
C=CC(=O)OCCC#N	2-Cyanoethyl prop-2-enoate	-16.9	PubChem
N#Cc1ccc(F)c(CBr)c1	3-(Bromomethyl)-4-fluorobenzonitrile	45	OCHEM
CCCCCCCC1(CC)C(=O)NC(=O)NC1=O	5-Ethyl-5-n-heptylbarbituric acid	118	OCHEM
O=[N+]([O-])c1ccc(N2CCNCC2)cn1	1-(6-nitropyridin-3-yl)piperazine	148	OCHEM
Clc1cc(Cl)c(Cl)c(-c2cc(Cl)cc(Cl)c2Cl)c1	2,2',3,3',5,5'-Hexachlorobiphenyl	65	QSARDB
CCS(=O)(=O)Oc1ccc2c(c1)C(C)(C)CO2	Benfuresate	30.1	OCHEM
N#Cc1ccc(S(=O)(=O)Cl)cc1Cl	3-Chloro-4-cyanobenzene-1-sulfonyl chloride	52	OCHEM
CC(C)OC(=O)Oc1ccccc1C(=O)OOC(=O)c1ccccc1	n/a	69	eChemPortal
N[C@@H](C[SeH])C(=O)O	L-Selenocysteine	144.5	PubChem
CCc1ccc(C(=O)CCl)cc1	2-Chloro-1-(4-ethylphenyl)ethan-1-one	42	OCHEM